Data on one compound can be found in patent US20240199647A1, “ANTI-VIRAL COMPOUNDS” (Aligos Therapeutics, Inc., priority 2022, published 2024).

Broadly, the CC50 is the concentration giving 50% cytotoxicity.

This data set concerns A549-dual_ACE2_TMPRSS2 cells. Briefly: Toxicity testing in A549-dual_ACE2_TMPRSS2 cells without virus (MTS). The settings on record: read-out: A549-dual_ACE2_TMPRSS2 (CC50), Table C, class symbols. The procedure: The A549-dual_ACE2_TMPRSS2 cells (InvivoGen Cat #a-49-cov2r) were propagated in the growth medium which was prepared by supplementing DMEM (gibco cat no 41965-039) with 10% v/v heat-inactivated FCS and 10 μg/mL blasticidin (InvivoGen ant-b1-05), 100 μg/mL hygromycin (InvivoGen ant-hg-1), 0.5 μg/mL puromycin (InvivoGen ant-pr-1) and 100 μg/mL zeocin (InvivoGen ant-zn-05) in a humidified 5% CO2 incubator at 37° C. The assay medium was prepared by supplementing DMEM (gibco cat no 41965-039) with 2% v/v heat-inactivated FCS.
For toxicity testing, the same experimental setup was used except that assay medium without virus was added to the cells and that an additional control of well without cells was added to the plate.
Table C indicates related EC50 and CC50 values for the tested compounds ‘A’ indicates an EC50 <100 nM, ‘B’ indicates an EC50 of ≥100 nM and <1000 nM, ‘C’ indicates an EC50 ≥1000 nM and <10000 nM. For CC50, the values are reported in micromolar (μM). ‘A’ indicates a CC50 ≥1000 nM. ‘B’ indicates a CC50 ≥100 nM and <1000 nM.

SMILES strings stand for the structures. A value given as a limit tells only on which side of the number the result lay.

As to `CN(C(=O)[C@H](CC1CC1)NS(=O)(=O)C1CC1)[C@@H](CC1CC1)C(=O)N1C[C@@]2(C[C@H]1C#N)Oc1cc(F)cc(F)c1NC2=O`, the CC50 is above 1000 nM.
